Data published in patent US8563500B2, “Methods and compounds for treating diseases caused by reactive oxygen species” (Deutsches Krebsforschungszentrum Stiftung des Offentlichen …, priority 2007, dated 2013).

Assays:
Type in all cases: cell-based, human
Jurkat J16-145 cells [1] = test: Cellular ATP determination; conditions: high concentrations of inhibitors, 2 h
CD95L = test: Activation-induced CD95L expression, semi-quantitative RT-PCR and quantitative PCR, Jurkat cells; conditions: Jurkat J16-145; plate-bound anti-CD3 (TCR triggering), 1 h
Jurkat J16-145 cells [2] = test: Activation-induced (PMA or anti-CD3) ROS generation, DCFDA oxidation by FACS; conditions: 30 min

Substance: antimycin A
- ATP depletion compared to rotenone and piericidin A (Jurkat J16-145 cells [1]): more efficient ATP depletion
- reduction of CD95L induction, quantitative PCR (CD95L): no effect
- effect on activation-induced (TCR- and PMA-induced) ROS generation, in words (Jurkat J16-145 cells [2]): no effect or increased the oxidative signal
